Results taken from paper PMC4294129 (Drug Design, Development and Therapy, 2015).

Test system: human platelets
Experiment: Collagen I-induced platelet aggregation in platelet rich plasma
Assay type: cell-based
Conditions: 10 μM, 2 μg/mL collagen I, saline 85%±19%, mean ± SD, four donors

Which “platelet aggregation, collagen-induced, in PRP” value does the source give for `COC(=O)[C@H](c1ccccc1Cl)N1CCc2sccc2C1` [clopidogrel] here?
Its value is 38%±22%.
